Target: T1, PDE9A (Homo sapiens, UniProt O76083)
T1 construct: they are full-length with N-terminal GST tag; GST (N); purchased BPS Biosciences 60090; host or cells: baculovirus infected Sf9 cells
Assay: PDE enzyme activity assay (HTRF cGMP), PDE9A
Assay type: biochemical
Conditions: recombinant enzyme; read-out: PDE9A inhibition (IC50)
Text: The biochemical assay to measure PDE5A, PDE9A isoform b, PDE4D7, and PDE4A1 enzyme activities relies on the HTRF cGMP assay kit from CisBio (CisBio, Cat. #62GM2PEB), that determines the amount of cGMP present in the reaction. The enzymes were obtained from BPS Biosciences (GenBank Accession number for PDE5A: NM_001083, Cat. #60050; PDE9A: NM_001001567, Cat. #60090; PDE4D7: NM_001165899, Cat. #60047; and PDE4A1: U97584, Cat. #60040) and they are full-length with N-terminal GST tag. They were expressed in a baculovirus infected Sf9 cell expression system.
For each enzyme, enzyme activity assay was carried out in a 384-well plate in a final volume of 20 μL, as follows: • 2.5 μL of vehicle or studied compound 4× concentrated prepared in assay buffer containing 50 mM Tris-HCl, 6 mM MgCl2, pH 7.4 (PDE5A, PDE4D7, PDE4A1) and additionally 0.03% Tween-20 (PDE9A). Final percentage of DMSO was 0.5%. • 2.5 μL of PDE5A (7 μg/mL) or 2.5 μL PDE9A (0.2 μg/mL) or 2.5 μL PDE4D7 (1.25 μg/mL) or 2.5 μL PDE4A1 (1.5 μg/mL) diluted in assay buffer. […]
Fluorescence of each well was determined at 665 nm excitation and 620 nm emission using the plate reader EnVision (Perkin-Elmer). Results, Table 1 (below), were calculated from the 665 nm/620 nm ratio. […]

Chains of the proteins cited; added tags and fusions are not shown. Residues count along the entry.
UniProt O76083, 1-533 isoform O76083-2: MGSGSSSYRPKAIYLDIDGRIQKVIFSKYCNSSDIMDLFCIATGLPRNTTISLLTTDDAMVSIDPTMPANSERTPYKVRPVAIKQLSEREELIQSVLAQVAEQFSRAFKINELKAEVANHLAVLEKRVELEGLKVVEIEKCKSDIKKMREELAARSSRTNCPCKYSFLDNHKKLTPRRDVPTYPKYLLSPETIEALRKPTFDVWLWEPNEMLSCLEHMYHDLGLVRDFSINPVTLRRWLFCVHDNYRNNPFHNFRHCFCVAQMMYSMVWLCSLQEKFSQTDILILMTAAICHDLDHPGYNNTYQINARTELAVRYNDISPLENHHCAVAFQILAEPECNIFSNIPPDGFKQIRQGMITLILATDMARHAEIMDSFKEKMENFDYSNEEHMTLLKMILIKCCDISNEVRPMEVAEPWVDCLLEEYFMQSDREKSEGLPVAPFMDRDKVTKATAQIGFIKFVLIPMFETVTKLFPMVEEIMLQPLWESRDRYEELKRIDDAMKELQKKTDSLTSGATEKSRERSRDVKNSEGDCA

IC50: 1 to 10 µM
Compound: CCCc1nn(C)c2c(=O)[nH]c(-c3cc(S(=O)(=O)N4CCN(C)CC4)ccc3OCC)nc12 [Sildenafil, reference compound]
